Laboratory results from patent US20120165334A1, “Indole/Benzimidazole Compounds as mTOR Kinase Inhibitors” (AMGEN INC., priority 2009, published 2012).

Target: T1, mTOR (Homo sapiens, UniProt P42345)
T1 construct: 2.5 μl of 0.6 μg/ml of mTOR Enzyme (Amgen) was added to rows 1-23
Assay: mTOR LanthaScreen (TR-FRET, phosphorylation of 4EBP1)
Type: biochemical
Settings: read-out: AA11016+++mTor_MA_IC50_IP
Protocol: The mTOR LanthaScreen is a TR-FRET assay measuring the phosphorylation of mTOR's substrate 4EBP1. 384 well compound plates were prepared containing 1 μl of compound per well starting at 5 mM and diluted 1:2 across the row, resulting in a 22 well serial dilution.
The assay was conducted on the PerkinElmer® FlexDrop PLUS. A 5 μl mix of 800 nM GFP-4E-BP1 (Invitrogen, PV4759) and 20 μM ATP (Amgen) was added to rows 1-24. 2.5 μl of 0.6 μg/ml of mTOR Enzyme (Amgen) was added to rows 1-23. 2.5 μl of assay buffer was added to row 24 for the low control. […] The final concentrations in the assay reagents were 400 nM GFP-4E-BP1, 10 μM of ATP and 0.15 μg/ml of mTOR enzyme. The compound, enzyme, and substrate incubate for 90 minutes.

In the case of “methyl 1-(4-amino-6-methyl-1,3,5-triazin-2-yl)-2-((3-methoxyphenyl)amino)-1H-benzimidazole-6-carboxylate [Cpd 90]”, the IC50 is reported as over 50 µM.
